From patent publication US20240141294A1, “CGMP COMPLIANT PRODUCTION AND EXPANSION OF PLASMACYTOID DENDRITIC CELLS FROM HEMATOPOIETIC STEM AND PROGENITOR CELLS” (AARHUS UNIVERSITET, priority 2021, published 2024)

Test system: Cord-blood derived CD34+HSPCs
Test: SR1/IL-3 deprivation during final 3 days of HSPC-pDC differentiation: cell growth and viability
Type: cell-based, human
Description: Cord-blood derived CD34+HSPCs were cultured in GMP DC media (CellGenix®) supplemented with the cytokines and growth factors Flt3-L (100 ng/mL), SCG (100 ng/mL), TPO (50 ng/mL), IL-3 (20 ng/mL) (Peprotech). In addition, 1 μM of the small molecule inhibitor StemRegenin 1 (SR1, STEMCELL Technologies), 20 μg/mL streptomycin and 20 U/mL penicillin (Gibco, Life Technologies) and 50 μg/mL of ascorbic acid (Sigma Aldrich) was added. Cells were cultured at 37° C., 95% humidity, and 5% CO2 for 17 days, medium was replenished every 2-4 day. The last 3 days, ie. from day 14-17, the culture was split in 4 equal parts. One kept in the same media as previously described, one kept in media without SR1, one kept in media without IL-3 and the last kept in media without both SR1 and IL-3. Viability and total cell numbers during expansion and differentiation of HSPCs was determined using a TC20 Automated Cell Counter (Bio-Rad).

B1: IL-3: cytokine supplement (Peprotech), 20 ng/mL (protein, UniProt P08700 20-152, looked up)
Interleukin-3: APMTQTTPLKTSWVNCSNMIDEIITHLKQPPLPLLDFNNLNGEDQDILMENNLRRPNLEAFNRAVKSLQNASAIESILKNLLPCLPLATAAPTRHPIHIKDGDWNEFRRKLTFYLKTLENAQAQQTTLSLAIF
fold change in number of cells in culture after the 3 days (named supplement removed day 14-17, standard condition 2.31 (±0.49)): 1.85 (±0.40) | difference in the number of cells in culture between day 14 and 17 (named supplement removed from media day 14-17, standard condition 22.5×10^6 (±2.15×10^6)): 13.7×10^6 (±3.08×10^6) cells
